Assay [1] deals with Sigma non-opioid intracellular receptor 1 (Cavia porcellus, UniProt Q60492).
Assay [2] addresses Kappa-type opioid receptor (Cavia porcellus, UniProt P41144).
Another assay has as its target Mu-type opioid receptor (Cavia porcellus, UniProt P97266). Briefly: Displacement of [3H]DAMGO from mu opioid receptor in guinea pig brain membranes after 120 mins by scintillation counting analysis.
In assay [3] the target is Delta-type opioid receptor (Rattus norvegicus, UniProt P33533). Briefly: Displacement of [3H]DPDPE from delta opioid receptor in Sprague-Dawley rat brain membranes after 120 mins by scintillation counting analysis. The following applies: strain Sprague-Dawley.

Protein sequences, listed by entry. Tags and fused reporters are not part of them. Lines headed by an entry give the natural chain unless they say otherwise; changes in a name come on top.
UniProt Q60492, whole entry, looked up: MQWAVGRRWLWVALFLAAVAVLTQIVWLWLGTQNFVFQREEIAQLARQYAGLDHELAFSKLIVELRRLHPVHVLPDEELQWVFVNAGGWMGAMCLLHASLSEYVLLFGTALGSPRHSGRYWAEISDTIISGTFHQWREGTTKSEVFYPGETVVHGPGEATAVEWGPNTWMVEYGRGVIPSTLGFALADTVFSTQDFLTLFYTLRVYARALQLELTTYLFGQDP
UniProt P41144: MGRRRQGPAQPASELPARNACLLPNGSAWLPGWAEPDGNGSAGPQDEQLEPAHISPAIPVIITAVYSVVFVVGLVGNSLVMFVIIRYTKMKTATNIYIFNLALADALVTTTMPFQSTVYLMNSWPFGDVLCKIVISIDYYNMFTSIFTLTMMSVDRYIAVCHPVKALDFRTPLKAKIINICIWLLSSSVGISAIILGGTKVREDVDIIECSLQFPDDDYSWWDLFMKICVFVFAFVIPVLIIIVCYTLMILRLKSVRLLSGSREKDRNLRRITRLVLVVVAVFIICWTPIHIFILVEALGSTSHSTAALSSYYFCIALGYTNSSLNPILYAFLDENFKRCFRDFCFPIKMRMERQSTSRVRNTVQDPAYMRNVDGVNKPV
UniProt P97266, whole entry, looked up: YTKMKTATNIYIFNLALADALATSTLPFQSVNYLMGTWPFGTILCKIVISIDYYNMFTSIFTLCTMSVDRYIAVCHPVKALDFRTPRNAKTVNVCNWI
UniProt P33533, whole entry, looked up: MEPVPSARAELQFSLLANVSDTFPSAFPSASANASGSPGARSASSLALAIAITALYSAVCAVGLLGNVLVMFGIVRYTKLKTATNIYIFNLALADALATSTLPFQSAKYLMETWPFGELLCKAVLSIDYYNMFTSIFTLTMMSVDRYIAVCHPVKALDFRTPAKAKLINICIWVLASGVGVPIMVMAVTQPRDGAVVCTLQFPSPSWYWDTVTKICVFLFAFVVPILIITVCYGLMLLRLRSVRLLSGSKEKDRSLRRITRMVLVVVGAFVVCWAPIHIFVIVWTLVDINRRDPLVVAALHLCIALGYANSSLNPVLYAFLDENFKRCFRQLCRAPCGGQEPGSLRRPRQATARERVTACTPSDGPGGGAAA

SMILES strings stand for the structures.

Turning to `O=C(Cc1ccc(Cl)c(Cl)c1)N1CC2OCCN(C(=O)Cc3ccc(Cl)c(Cl)c3)C2C(N2CCCC2)C1` (racemic), the Ki in assay [1] is 991 nM; in assay [2], more than 1000 nM; on Mu-type opioid receptor, more than 1000 nM; in assay [3], more than 1000 nM.
